Molecular target: recombinant sEH (Homo sapiens, UniProt P34913)
Experiment: biochemical screening assay for inhibition of soluble epoxide hydrolase (fluorometric, Phome substrate)
Settings: read-out: sEH IC50
Description: The ability of the compounds of the formula I to inhibit soluble epoxide hydrolase can be determined as follows:
Compounds were tested in a biochemical screening assay using recombinant sEH purified from Sf9 insect cells and an artificial substrate, (3-phenyl-oxiranyl)-acetic acid cyano-(6-methoxy-naphtalen-2-yl)-methyl ester, Phome. The biochemical assay was performed in analogy to a fluorometric method described in the literature (P. D. Jones et al., Anal. Biochem. 2005, 343, 66-75). The assay principle bases on the sEH-catalyzed hydrolysis of an artificial α-cyano-ester substrate. 0-deacetylation liberates a cyanohydrin intermediate that rapidly decomposes to the highly fluorescent 6-methoxy-2-naphtaldehyde. To discriminate sample autofluorescence, the assay was carried out as a kinetic measurement with two time points. The first measurement is performed immediately before addition of the substrate and the second measurement is done after completion of the assay. The assay format is either in 96- or in 384-well format. Details of the assay using a 96-well plate format are described below. […]
Fluorescence can be measured with any suitable detector for instance a TECAN Safire or Tecan Ultra at […]. % inhibition of recombinant sEH activity is used for calculation of corresponding IC50 values as illustrated and described in the examples. […]

Protein sequences, listed by entry. Tags and fused reporters are not part of them.
UniProt P34913, whole entry: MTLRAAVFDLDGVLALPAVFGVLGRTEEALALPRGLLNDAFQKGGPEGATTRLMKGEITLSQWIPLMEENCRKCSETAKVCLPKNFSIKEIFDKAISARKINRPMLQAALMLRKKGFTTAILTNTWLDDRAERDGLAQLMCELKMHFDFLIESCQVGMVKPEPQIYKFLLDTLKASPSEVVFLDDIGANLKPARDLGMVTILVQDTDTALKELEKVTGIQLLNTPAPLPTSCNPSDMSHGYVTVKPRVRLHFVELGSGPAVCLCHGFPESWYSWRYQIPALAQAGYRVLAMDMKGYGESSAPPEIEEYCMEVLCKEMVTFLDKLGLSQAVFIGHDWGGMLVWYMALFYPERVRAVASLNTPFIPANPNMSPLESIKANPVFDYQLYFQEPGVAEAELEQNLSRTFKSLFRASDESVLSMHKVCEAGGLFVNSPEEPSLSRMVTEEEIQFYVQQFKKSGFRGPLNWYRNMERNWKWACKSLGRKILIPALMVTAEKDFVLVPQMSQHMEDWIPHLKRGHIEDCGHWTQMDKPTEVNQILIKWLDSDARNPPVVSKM

IC50: 86 nM
SMILES: N#C[C@H]1CO[C@H]2[C@@H]1OC[C@@H]2NC(=O)Nc1ccc2c(c1)OCCO2

Reference: US9540391B2, “Isomannide derivatives as inhibitors of soluble epoxide hydrolase” (SANOFI, priority 2013, dated 2017)
